IC50 data for one substance are collected here from PMC4077706, “Lifting the Mask: Identification of New Small Molecule Inhibitors of Uropathogenic Escherichia coli Group 2 Capsule Biogenesis” (PLoS ONE, 2014).

Sequences of proteins named here, by UniProt entry; tags and fusion partners are left off. A change or cut given only in a name is not applied to a line headed by its entry.
UniProt P25105: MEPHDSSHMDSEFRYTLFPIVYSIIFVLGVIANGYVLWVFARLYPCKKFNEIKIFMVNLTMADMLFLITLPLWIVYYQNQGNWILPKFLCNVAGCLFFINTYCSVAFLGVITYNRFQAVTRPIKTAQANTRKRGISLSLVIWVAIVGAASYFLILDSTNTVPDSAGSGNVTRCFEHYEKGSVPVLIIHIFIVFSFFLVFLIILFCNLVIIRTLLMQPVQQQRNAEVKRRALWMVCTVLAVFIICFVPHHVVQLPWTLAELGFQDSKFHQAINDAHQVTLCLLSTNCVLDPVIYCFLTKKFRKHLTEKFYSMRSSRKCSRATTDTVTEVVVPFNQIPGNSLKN

As usually defined, the IC50 is the point on the concentration scale where inhibition reaches its midpoint.

This test deals with T1, Platelet Activating Factor (PAF) (Homo sapiens, UniProt P25105).
T1 construct: Human platelets; host or cells: human platelets
Type of test: binding. To be noted: read-out: IC50 Concurrent.

On to PAF [reference compound], for which the IC50 came out at 0.22 nM.
